# Water solubility values, as collected for the OPERA models

Solubility in water is on a log10 molar scale (set defined at 25 °C). "–" marks a cell with nothing listed here.

SMILES	name	log S (log10 mol/L)
C=CC(=O)OCC(C)OCC(C)OCC(C)OC(=O)C=C (centres undefined)	Tripropylene glycol diacrylate	-1.876
CC(=O)C(N=Nc1ccc(-c2ccc(N=NC(C(C)=O)C(=O)Nc3ccc(C)cc3)c(Cl)c2)cc1Cl)C(=O)Nc1ccc(C)cc1 (centres undefined)	C.I. Pigment Yellow 55	-8.102
COc1ccc2cc(C(C)=O)ccc2c1	2-Acetyl-6-methoxynaphthalene	-2.421
CCCCN1C[C@H](O)[C@@H](O)[C@H](O)[C@H]1CO	Miglustat	0.419
CN(C)c1ccc(C(c2ccc(N(C)C)cc2)c2ccc(N(C)C)cc2)cc1	Leucogentian violet	-5.458
CCCCC(CC)COP(=O)(OCC(CC)CCCC)OCC(CC)CCCC (centres undefined)	Tris(2-ethylhexyl) phosphate	-6.192
Cc1ccc(C2(O)CCN(CCCC(=O)c3ccc(F)cc3)CC2)cc1	Moperone	-4.347
O=C(O)C(=O)c1ccc2c(c1)OCO2	1,3-Benzodioxol-5-yl(oxo)acetic acid	-1.191
NC(=O)Nc1ccccc1F	(2-Fluorophenyl)urea	-1.08
O=C1c2c(O)ccc(O)c2C(=O)c2c(NCCO)ccc(NCCO)c21	1,4-Dihydroxy-5,8-bis((2-hydroxyethyl)amino)anthraquinone	-3.942
O=C(c1ccc(O)cc1)c1cccc(C(=O)c2ccc(O)cc2)c1	benzene-1,3-diylbis[(4-hydroxyphenyl)methanone]	-6.469
CCCC1CCC(c2ccc(OCC)c(F)c2F)CC1 (centres undefined)	1-Ethoxy-2,3-difluoro-4-(4-propylcyclohexyl)benzene	-6.337
CC(=O)OCCOc1ccccc1	2-Phenoxyethyl acetate	-1.977
O=c1[nH]c(=O)c2[nH]c(=O)[nH]c(=O)c2[nH]1	1,5-Dihydropyrimido(5,4-d)pyrimidine-2,4,6,8(3H,7H)tetrone	-5.456
CC1=CCC(C)C(C)C1=O (centres undefined)	2-Cyclohexen-1-one, 2,5,6-trimethyl-	-1.885
COc1cccc(NC(=O)N(C)C)c1	Urea, 3-(m-methoxyphenyl)-1,1-dimethyl-	-2.1
CCCCC(CC)COC(=O)c1ccc(Nc2nc(Nc3ccc(C(=O)OCC(CC)CCCC)cc3)nc(Nc3ccc(C(=O)OCC(CC)CCCC)cc3)n2)cc1 (centres undefined)	Ethylhexyl triazone	-8.143
Nc1ccc2cccc(S(=O)(=O)O)c2c1	Badische acid	-2.571
CCN(CCO)c1ccc(N=Nc2ccc([N+](=O)[O-])cc2[N+](=O)[O-])cc1	2-((4-((2,4-Dinitrophenyl)azo)phenyl)ethylamino)ethanol	-5.699
CCOC(=O)Nc1ccc2c(c1)N(C(=O)CCN1CCOCC1)c1ccccc1S2	Moricizine	-4.101
C=C(C)C(=O)OCC1CC2CC1C1CCC(COC(=O)C(=C)C)C21 (centres undefined)	–	-5.931
CCC1(C/C=C2\CCCc3cc(OC)ccc32)C(=O)CCC1=O	–	-4.172
CC(=C(CCO)SSC(CCO)=C(C)N(C=O)Cc1cnc(C)nc1N)N(C=O)Cc1cnc(C)nc1N	Thiamine disulfide	-2.546
CCCCCCCCCCCCCCCCCC[N+](C)(C)C.[Cl-]	N,N,N-Trimethyloctadecan-1-aminium chloride	-3.851
Cc1cccc(Cl)c1C	1,2-Dimethyl-3-chlorobenzene	-3.845
O=c1[nH]c2ccc([N+](=O)[O-])cc2[nH]1	2H-Benzimidazol-2-one, 1,3-dihydro-5-nitro-	-3.274
CC(CC(=O)O)CC(C)(C)C (centres undefined)	3,5,5-Trimethylhexanoic acid	-2.354
CCCC/C=C\CCCCCCCCOC(C)=O	(Z)-9-Tetradecenyl acetate	-6.71
COc1ccc(CN2C(=O)c3ccc4c5ccc6c7c(ccc(c8ccc(c3c48)C2=O)c75)C(=O)N(Cc2ccc(OC)cc2)C6=O)cc1	–	-8.499
C[C@](N)(Cc1ccc(O)cc1)C(=O)O	Metyrosine	-1.896

Excerpt, the opening 4 entries:

| SMILES | name | log S (log10 mol/L) |
|---|---|---|
| C=CC(=O)OCC(C)OCC(C)OCC(C)OC(=O)C=C (centres undefined) | Tripropylene glycol diacrylate | -1.876 |
| CC(=O)C(N=Nc1ccc(-c2ccc(N=NC(C(C)=O)C(=O)Nc3ccc(C)cc3)c(Cl)c2)cc1Cl)C(=O)Nc1ccc(C)cc1 (centres undefined) | C.I. Pigment Yellow 55 | -8.102 |
| COc1ccc2cc(C(C)=O)ccc2c1 | 2-Acetyl-6-methoxynaphthalene | -2.421 |
| CCCCN1C[C@H](O)[C@@H](O)[C@H](O)[C@H]1CO | Miglustat | 0.419 |

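The numbers are reported measurements, compiled and curated for the OPERA QSAR suite. One number stands for a compound and property, with no spread given. Method, purity and exact conditions of the single measurements are not given. The measured form (salt, isomer or mixture) is not always the one drawn. Some entries may be limits or estimates that an upstream database listed as plain numbers.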

Data: OPERA 2.9 data sets, kmansouri/OPERA on GitHub.